Drawing on PMC6820738 (2019), this text covers Kd for 1 molecule.

Usually Kd stands for a measure of binding affinity in units of concentration. A high value points to lower affinity.

This assay deals with F-actin polymerised from purified bovine muscle actin (bovine, UniProt P68138 1-377).

B1: Y4/31E/K255E ACTN4, full length, purified from E. coli (natural protein)
chain: MVDEHAANQSYQYGPSSAGNGAGGGGSMGDEMAQEDDWDRDLLLDPAWEKQQRKTFTAWCNSHLRKAGTQIENIDEDFRDGLKLMLLLEVISGERLPKPERGKMRVHKINNVNKALDFIASKGVKLVSIGAEEIVDGNAKMTLGMIWTIILRFAIQDISVEETSAKEGLLLWCQRKTAPYKNVNVQNFHISWKDGLAFNALIHRHRPELIEYDKLRKDDPVTNLNNAFEVAEKYLDIPKMLDAEDIVNTARPDEEAIMTYVSSFYHAFSGAQKAETAANRICKVLAVNQENEHLMEDYEKLASDLLEWIRRTIPWLEDRVPQKTIQEMQQKLEDFRDYRRVHKPPKVQEKCQLEINFNTLQTKLRLSNRPAFMPSEGKMVSDINNGWQHLEQAEKGYEEWLLNEIRRLERLDHLAEKFRQKASIHEAWTDGKEAMLKHRDYETATLSDIKALIRKHEAFESDLAAHQDRVEQIAAIAQELNELDYYDSHNVNTRCQKICDQWDALGSLTHSRREALEKTEKQLEAIDQLHLEYAKRAAPFNNWMESAMEDLQDMFIVHTIEEIEGLISAHDQFKSTLPDADREREAILAIHKEAQRIAESNHIKLSGSNPYTTVTPQIINSKWEKVQQLVPKRDHALLEEQSKQQSNEHLRRQFASQANVVGPWIQTKMEEIGRISIEMNGTLEDQLSHLKQYERSIVDYKPNLDLLEQQHQLIQEALIFDNKHTNYTMEHIRVGWEQLLTTIARTINEVENQILTRDAKGISQEQMQEFRASFNHFDKDHGGALGPEEFKACLISLGYDVENDRQGEAEFNRIMSLVDPNHSGLVTFQAFIDFMSRETTDTDTADQVIASFKVLAGDKNFITAEELRRELPPDQAEYCIARMAPYQGPDAVPGALDYKSFSTALYGESDL
In turn, B1 yielded a Kd of 530 nM.
